Experimental findings from patent US5767096A, “Bromotiacumicin compounds” (Abbott Laboratories, priority 1996, dated 1998) are described below.

≈ marks a conversion by molar mass, not a printed value. Where only a bound is given, the exact number is not on record here.

What all share (type): cell-based
The test system of test [1] is Bacteriodes thetaiotaomicron ATCC 29741. Description: In vitro antibiotic activity (MIC) against anaerobes, agar dilution, Wilkins-Chalgren agar. The note with it: anaerobe, ~10^5 organisms per spot, 37° C., ~48 hours. Here is the method:
(§1) Optical rotations were measured on a Perkin-Elmer Model 241 polarimeter in a 10 cm cell. Fast atom bombardment mass spectra were measured on a Kratos MS-50 mass spectrometer. Ultraviolet spectra were recorded on a Perkin-Elmer Lambda 3B UV-visible spectrophotometer and infrared spectra on a Nicolet model 60SX FT-IR attached to a Nicolet computer. NMR spectra were acquired on either a General Electric GN500 or GN300 spectrometer. NMR spectral data are reported in Table 1 (following Example 6 below). Rf values reported were acquired on Analtech TLC plates developed with chloroform:methanol (9:1, v:v) and were visualized using ceric sulfate spray reagent. Melting points were determined on a Hoover Unimelt and are reported uncorrected. Minimal inhibitory concentrations were determined by twofold agar dilution. Brain heart infusion agar was used for aerobes and Wilkins-Chalgren agar for anaerobes.
(§2) For primary screening of compounds of the invention against anaerobic bacteria such as Clostridium, minimal inhibitory concentrations (MICs) were determined by the following agar dilution method: Series of two-fold dilutions of the test compounds were added to Wilkins-Chalgren agar. The agar plates were inoculated with approximately 10^5 organisms per spot of each of the organisms to be tested. The inoculated agar plates were then incubated at 37° C. for approximately 48 hours. The MICs were determined as the minimal concentration of test compound (in […]) that inhibited visible growth.

Test [2] concerns Bacteroides fragilis ATCC 25285. The description is as above. The note with it: anaerobe, ~10^5 organisms per spot, 37° C., ~48 hours. Here is the method:
as §1, §2

In test [3] the test system is Staphylococcus epidermidis 3519. In words: In vitro antibiotic activity (MIC), agar dilution, brain heart infusion agar. The note with it: ~10^4 organisms per spot, 37° C., ~20 hours. On the procedure:
as §1
(§3) For primary screening of compounds of the invention against selected aerobic microorganisms, minimal inhibitory concentrations (MICs) were determined by the following agar dilution method: Series of two-fold dilutions of the test compounds were added to brain heart infusion agar. The agar plates were inoculated with approximately 10^4 organisms per spot of each of the organisms to be tested. These inoculated agar plates were then incubated at 37° C. for approximately 20 hours. The MICs were determined as the minimal concentration of test compound (in […]) that inhibited visible growth.

The subject of test [4] is Staphylococcus aureus ATCC 6538P. The test is described as above. The note with it: ~10^4 organisms per spot, 37° C., ~20 hours. Here is the method:
as §1, §3

In test [5] the test system is Enterococcus faecium ATCC 8043. The description is as above. The note with it: ~10^4 organisms per spot, 37° C., ~20 hours. On the procedure: as §1, §3
Another test deals with Escherichia coli JUHL. Described as above. The note with it: ~10^4 organisms per spot, 37° C., ~20 hours. On the procedure:
as §1, §3

Test [6] relates to Streptococcus pyogenes EES61. The test is described as above. The note with it: ~10^4 organisms per spot, 37° C., ~20 hours. On the procedure:
as §1, §3

The subject of test [7] is Clostridium difficile ATCC 9689. Description: In vitro antibiotic activity (MIC) against anaerobes, agar dilution, Wilkins-Chalgren agar. The note with it: anaerobe, ~10^5 organisms per spot, 37° C., ~48 hours. Here is the method: as §1, §2
Test [8] relates to Clostridium difficile 2532. Described as above. The note with it: anaerobe, ~10^5 organisms per spot, 37° C., ~48 hours. On the procedure: as §1, §2
Test [9] has as its system Clostridium difficile ATCC 17857. Described as above. The note with it: anaerobe, ~10^5 organisms per spot, 37° C., ~48 hours. Here is the method:
as §1, §2

For “4'",6'"-didechloro-4'"-bromotiacumicin B [Ex. 5]”, the MIC in test [1] and in test [2] was over 128 µg/mL throughout.
“4'",6'"-didechloro-4'"-bromotiacumicin C [Ex. 6]”: the MIC in [1] and in test [2] was over 128 µg/mL in each case.
In the case of `CCc1c(Cl)c(O)c(Cl)c(O)c1C(=O)O[C@H]1[C@H](O)[C@H](OC)[C@H](OC/C2=C\C=C\C[C@H](O)/C(C)=C/[C@H](CC)[C@@H](O[C@@H]3OC(C)(C)[C@@H](OC(=O)C(C)C)[C@H](O)[C@@H]3O)/C(C)=C/C(C)=C/C[C@@H]([C@@H](C)O)OC2=O)O[C@@H]1C` [Tiacumicin B, tiacumicin B, reference compound], the MIC (commonly the least concentration at which growth counts as inhibited) is 1.56 µg/mL (≈ 1.47 µM) in test [3]; 0.78 µg/mL (≈ 0.737 µM) in test [4]; 1.56 µg/mL (≈ 1.47 µM) in [5]; over 200 µg/mL against Escherichia coli JUHL; 6.2 µg/mL (≈ 5.86 µM) in test [6]; 0.06 µg/mL (≈ 0.0567 µM) in test [7]. The MIC in [8] was 0.12 µg/mL (≈ 0.113 µM); in test [1], over 128 µg/mL; in test [9], 0.12 µg/mL (≈ 0.113 µM); in [2], over 128 µg/mL.
